Laboratory results as given in EP1277738B1, “CONDENSED HETEROARYL DERIVATIVES” (Astellas Pharma Inc., priority 2000, dated 2001).

System: A375 cells
Assay: Melanoma cell growth inhibition (Alamar Blue)
Assay type: cell-based
Details: Homo sapiens, A-375, 46 h
Protocol: A375 cells from a melanoma cell line were cultured in DMEM medium (GIBCO) supplemented with 10% fetal bovine serum. A375 cells at 10,000 cells/100µl were added to a 96 well plate which contained 1µl/well of the test compounds (final concentration of 0.001 - 30µM). After incubation for over 46 hours, Alamar Blue reagent was added to the medium (10µl/well).

## Nc1ccc(C(=O)Nc2cccc(-c3nc(N4CCOCC4)c4oc5ncccc5c4n3)c2)cn1 [Co 17, 6-amino-3'-.(4-morpholinopyrido[3',2':4,5]furo[3,2-d]pyrimidin-2-yl)nicotinanilide]
  IC50: 0.33 to 4.26 µM
